Values quoted from earlier work as cited in patent EP4527389A1, “PROLONGED-RELEASE INJECTABLE COMPOSITIONS FOR USE IN TREATMENT WITH RISPERIDONE TOGETHER WITH CYP2D6 ENZYME INHIBITORS” (Laboratorios Farmacéuticos Rovi S.A., priority 2022, dated 2023).

Amino acid sequences for entries named in this document (tags omitted).
UniProt P10635, whole entry: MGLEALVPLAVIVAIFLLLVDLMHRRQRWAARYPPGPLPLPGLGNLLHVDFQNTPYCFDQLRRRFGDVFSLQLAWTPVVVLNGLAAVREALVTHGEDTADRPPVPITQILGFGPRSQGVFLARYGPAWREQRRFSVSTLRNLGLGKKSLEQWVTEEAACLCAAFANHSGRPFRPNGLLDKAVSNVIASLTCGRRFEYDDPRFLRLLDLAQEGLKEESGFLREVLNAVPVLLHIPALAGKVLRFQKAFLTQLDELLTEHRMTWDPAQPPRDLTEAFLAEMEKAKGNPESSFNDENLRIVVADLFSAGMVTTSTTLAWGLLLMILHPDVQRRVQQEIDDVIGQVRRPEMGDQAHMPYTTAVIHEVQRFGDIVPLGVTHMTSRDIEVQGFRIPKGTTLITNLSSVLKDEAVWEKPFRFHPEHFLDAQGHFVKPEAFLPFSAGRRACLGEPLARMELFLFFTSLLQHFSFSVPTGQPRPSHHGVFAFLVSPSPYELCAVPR

Target: CYP2D6 (cytochrome P450 2D6) enzyme (Homo sapiens, UniProt P10635)
Details: three categories: strong, moderate, weak

Cc1nc2n(c(=O)c1CCN1CCC(c3noc4cc(F)ccc34)CC1)CCCC2 [Risperidone]
CYP2D6 enzyme inhibitor category: strong CYP2D6 inhibitors
